Measured affinities in a library of Ab-95 light chain variants

All variants were tested on one target, the spike HR2 peptide PDVDLGDISGINAS (SARS-CoV-2).

Parent: Ab-95, a human scFv built as VH, the linker GGGGSGGGGSGGGGS, VL. Only the CDRs of the light chain vary.
VH: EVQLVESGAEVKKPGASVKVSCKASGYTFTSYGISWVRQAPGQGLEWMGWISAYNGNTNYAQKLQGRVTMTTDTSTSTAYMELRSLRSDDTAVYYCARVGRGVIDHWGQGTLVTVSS
VL: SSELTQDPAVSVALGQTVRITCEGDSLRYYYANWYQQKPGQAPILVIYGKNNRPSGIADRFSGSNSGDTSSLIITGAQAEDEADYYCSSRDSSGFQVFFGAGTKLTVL

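Library AAYL52 holds single substitutions and randomly drawn double and triple substitutions in the CDRs. Affinity was read by AlphaSeq, a pooled yeast mating assay with surface-displayed partners. Binding brings cells together so that they mate, and sequencing counts the barcode pairs among the diploids. Scores were corrected for input abundance and mapped to Kd with protein pairs of known affinity run in the same pool. There are three technical replicates.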

Changes read parent residue, position, new residue, counted from the first residue of the VL shown.
Scale: log10 of Kd in nM, estimated from mating counts; low values are strong binders.
Averages over replicates are reported, and they cover detected replicates only.
An entry "nd" has no value in the source: the pair was not observed among the diploids in any replicate. This suggests poor binding but is not conclusive.
Parent in this assay: reference entry 2.31, copy in this library 2.25.
Empty control strains, which show no peptide, gave a signal in 28% of pairings with library AAYL52; the median was 3.91 and 95% of these signals were weaker than 2.90. No background was subtracted.

changes,mean log10 Kd (nM),detected
S26Y+A32L+R53P,4.02,2/3
Y29A+R90T+S93P,1.97,3/3
D25Q+R28Q,1.83,3/3
G49E+S89Q,3.47,2/3
A32R+N33Q+D91I,4.36,1/3
G49C+S88F+Q96M,nd,0/3
Y30R+N51S+F95V,2.39,3/3
Y29S+S92V+V97S,nd,0/3
S26F+G49V+V97C,3.30,1/3
Y30A+P54C+F98Q,2.94,2/3
R28C+G49Y+G94Y,3.76,2/3
D25R+N51D+S88Y,nd,0/3
S89P+S92N+Q96M,3.02,3/3
R28T+Y29K+N52M,2.22,3/3
N33M+N52C,3.96,3/3
Y29K+N51A,2.28,3/3
S88P+S93A+G94L,2.77,3/3
E23L+Y31R+Q96F,2.88,3/3
A32R+R90L+Q96C,4.26,2/3
R90T+D91N+F95I,3.06,2/3
D25H+K50P+F95M,2.19,3/3
N33V+S88G+G94R,4.35,2/3
A32V+V97H,5.13,3/3
D25A+K50R+R53K,3.00,3/3
N33W+N51C+S92Y,3.55,1/3
R28Q+Q96M+V97F,nd,0/3
A32C+D91A+F98A,2.82,3/3
N33V+K50G+F98C,3.46,1/3
D25T+L27G+P54E,4.77,1/3
E23H+G94D+F98W,2.38,3/3
R28K+S89P+Q96R,1.90,3/3
G24K+N52E+P54Y,3.58,1/3
S26C+Y31S+F98V,3.40,3/3
R28D+N51G+Q96N,2.24,3/3
D25N+N51T+S88L,4.04,1/3
E23Q+R28W+G49M,4.59,3/3
Y29H+N51Q+S55Q,2.36,3/3
R28I+G94C+F95H,3.00,1/3
S26L+S89D+Q96P,nd,0/3
E23P+D25F+F98S,4.53,2/3
S26L+G94D+V97A,3.48,2/3
R28A+A32I+P54Q,3.64,2/3
Y29H+G49Q+P54I,4.02,2/3
R28F+G49Y+N52E,nd,0/3
S88D+F95N,2.63,1/3
S26F+G49R+D91T,4.27,3/3
L27A+R28L+G49H,5.09,1/3
L27C+Y31K,2.93,3/3
Y31L+K50F+N52G,4.16,1/3
Y29I+G94Q+F98K,nd,0/3
Y30H+G49L+R90I,2.36,3/3
K50N+R53D+S92I,4.42,1/3
Y29F+S89H+D91R,3.10,3/3
S55A+S93K,3.19,2/3
Y29N+N52G+S92H,2.69,3/3
S26N+G94E,nd,0/3
R53T+S88E,2.44,3/3
L27Y+R53C+F95M,5.31,1/3
L27M+Y29Q+F98W,3.35,3/3
Y30K+A32E+N51C,nd,0/3

Excerpt, the final 7 entries:

| changes | mean log10 Kd (nM) | detected |
|---|---|---|
| S55A+S93K | 3.19 | 2/3 |
| Y29N+N52G+S92H | 2.69 | 3/3 |
| S26N+G94E | nd | 0/3 |
| R53T+S88E | 2.44 | 3/3 |
| L27Y+R53C+F95M | 5.31 | 1/3 |
| L27M+Y29Q+F98W | 3.35 | 3/3 |
| Y30K+A32E+N51C | nd | 0/3 |

Values reported by Engelhart et al. 2022, doi:10.1038/s41597-022-01779-4 (FLAb copy).